Some compounds may have been tested in ways that are not shown here.
How the values were obtained:
[1] = molecular target: T1, nociceptin receptor ORL1 (Homo sapiens, UniProt P41146); assay: Antagonism against nociceptin-elicited G protein activation; conditions: read-out: IC50 Value (antagonism against nociceptin-elicited G protein activation); GTPγ[35S] binding 200 pM, 50 nM nociceptin, CHO/ORL1 membrane, SPA, pH 7.4, 25° C., 150 minutes
Method: (§1) cDNA which codes a human nociceptin receptor gene was cloned into an expression vector pCR3 (Invitrogen) to prepare pCR3/ORL1. Next, pCR3/ORL1 was transfected in CHO cells using a transfectam (Nippongene) to obtain a stable expression strain (CHO/ORL1 cells) having resistance against 1 mg/ml G418. Membranes were prepared from this stable expression strain to carry out a receptor binding assay.
CHO cells which stably expressed a nociceptin receptor ORL1 were used to investigate the action of a tested compound against nociceptin-elicited G protein activation. A membrane prepared from the CHO/ORL1 cell, 50 nM nociceptin, 200 pM GTP γ[^3 S] (NEN), 1.5 mg SPA (Amersham) and the tested compound were mixed in a GDP buffer (20 mM Hepes, 100 mM sodium chloride, 10 mM magnesium chloride, 1 mM EDTA, 5 μM GDP, pH 7.4) and incubated at 25° C. for 150 minutes, and then the radioactivity was determined. The antagonism against nociceptin-elicited G protein activation was shown by the 50% inhibition concentration (IC50 value) of GTP γ[^35 S] binding by the compounds of the present invention having various concentrations.

Protein sequences, listed by entry. Tags and fused reporters are not part of them.
UniProt P41146, whole entry: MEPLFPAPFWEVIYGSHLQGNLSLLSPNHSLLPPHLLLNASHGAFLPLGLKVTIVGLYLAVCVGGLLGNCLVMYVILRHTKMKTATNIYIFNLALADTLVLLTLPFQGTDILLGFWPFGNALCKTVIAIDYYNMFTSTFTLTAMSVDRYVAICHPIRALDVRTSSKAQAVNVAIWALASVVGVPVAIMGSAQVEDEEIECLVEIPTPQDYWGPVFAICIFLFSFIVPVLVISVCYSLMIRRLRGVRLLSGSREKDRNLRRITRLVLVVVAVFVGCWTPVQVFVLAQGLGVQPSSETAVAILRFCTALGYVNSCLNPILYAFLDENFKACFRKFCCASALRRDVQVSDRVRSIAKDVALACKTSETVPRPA

[2] = molecular target: T1, nociceptin receptor ORL1; assay: Nociceptin receptor binding inhibition assay; conditions: read-out: IC50 value (nociceptin receptor binding inhibition effect); [125I]Tyr14-Nociceptin 50 pM, CHO/ORL1 membrane 11 μg, SPA, pH 7.4, 37° C., 60 minutes
Method: as §1
The membrane of 11 μg, 50 pM [^125 I] Tyr^14 -Nociceptin (Amersham), 1 mg SPA (Amersham) and a tested compound were suspended in an NC buffer (50 mM Hepes, 10 mM sodium chloride, 1 mM magnesium chloride, 2.5 mM calcium chloride, 0.1% BSA, 0.025% bacitracin, pH 7.4) and incubated at 37° C. for 60 minutes, and then the radioactivity was determined. The binding activity to the nociceptin receptor was shown by the 50% inhibition concentration (IC50 value) of [^125 I] Tyr^14 -Nociceptin binding by the compounds of the present invention having various concentrations.

| SMILES | IC50 [1] | IC50 [2] |
| --- | --- | --- |
| CCn1c(=O)n(C2CCN(CC3CCCCCCC3)CC2)c2ccccc21 | 18 nM | 6.1 nM |
| O=c1[nH]c2ccccc2n1C1CCN(CC2CCCCCCC2)CC1 | 670 nM | 8 nM |

— patent US6258825A, “2-oxoimidazole derivatives” (dated 2001)
